US20200148682A1, “AKT ISOZYME-SPECIFIC COVALENT INHIBITORS DERIVED FROM REDOX-SIGNALING LIPIDS” (Cornell University, priority 2017, published 2020)

Chains of the proteins cited; added tags and fusions are not shown. Lines headed by an entry give the natural chain unless they say otherwise; changes in a name come on top.
UniProt Q9Y243: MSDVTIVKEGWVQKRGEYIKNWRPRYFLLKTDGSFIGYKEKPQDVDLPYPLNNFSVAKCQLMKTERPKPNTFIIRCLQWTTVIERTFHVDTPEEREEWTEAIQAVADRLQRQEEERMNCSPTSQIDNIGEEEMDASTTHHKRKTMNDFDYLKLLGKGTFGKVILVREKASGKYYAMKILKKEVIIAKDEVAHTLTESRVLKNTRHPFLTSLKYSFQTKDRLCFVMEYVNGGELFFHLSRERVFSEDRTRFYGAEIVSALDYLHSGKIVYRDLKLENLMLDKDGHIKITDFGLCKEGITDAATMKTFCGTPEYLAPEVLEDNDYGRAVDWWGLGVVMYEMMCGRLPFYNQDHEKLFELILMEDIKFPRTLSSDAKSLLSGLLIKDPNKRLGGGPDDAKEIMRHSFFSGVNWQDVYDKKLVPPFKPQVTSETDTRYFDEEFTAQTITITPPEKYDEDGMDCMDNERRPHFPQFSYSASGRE

Assays:
Type in all cases: cell-based
[1] = tested on: Akt1, Akt2, Akt3 isoforms; test: Akt isoform selectivity of covalent inhibition (in-gel fluorescence, transfected HEK293T cells)
Excerpt: Overexpressed Akt proteins were labeled with Cy5-small-molecule-fluorophore-conjugated azide (Cy5-azide) using standard click chemistry. FIG. 16A top gel is an image showing Cy5 channel (used to evaluate the extent of covalent binding on each Akt protein). The lysate from non-transfected HEK 293T cells was also used for comparison. M, molecular weight ladder. […] FIG. 16B top gel is an image showing Cy5 channel. M is a molecular weight ladder. FIG. 16B bottom is an image showing western blots probing Halo and actin, respectively. […] Error bars designate s.d. […] Normalized fluorescent signal (NFS) was calculated from the following equation: NFS=[(Cy5(X μM drug)−Cy5(No transfection))/Halo(X μM drug)]÷[(Cy5(no drug)−Cy5(No transfection))/Halo(no drug)]. The relative fluorescent signal (RFS) is calculated from the following equation: RFS=(Cy5(X μM drug)/Halo(X μM drug)) (Cy5(no drug)/Halo(no drug))
Cell transfection with the designated plasmid encoding a given HaloTag-Akt fusion gene was carried out following the general procedure described in Example 12. After 20-24 hours, the transfection media were aspirated and replaced with fresh 2 mL rinse MEM medium supplemented with 3% FBS containing the indicated concentration of inhibitor or the equivalent final volume of DMSO and the plates were incubated for the indicated period of time. […]

Halo-Akt3 = target: T1, Halo-Akt3 (Homo sapiens, UniProt Q9Y243); test: AKTAR FRET assay in live HEK293T cells; conditions: 48 hours drug, then 24 hours withdrawal
T1 construct: expressed in transfected cells; host or cells: HEK293T
Method: FIGS. 21C-21D: HEK293T cells were transfected with plasmids encoding AKTAR and Halo-Akt3 (1:1). After 12 hours, cells were treated with MK-2206 (5 μM) or MK-HNE (5 μM). After 24 hours and 48 hours Akt3 activity was measured using ratiometric FRET analysis in live cells. After 48 hours, cells were washed two times with drug-free media containing 10% FBS and allowed to recover in 3% FBS MEM media for another 24 hours, after which time Akt3 activity was assayed using FRET again. wd=withdrawal for 24 hours. […] FIG. 21D is a graph showing quantitation of all data sets for treatment of HEK293T cells expressing Halo-Akt3/AKTAR. […] FIG. 21F is a graph showing quantitation of all data sets for treatment of HEK293T cells expressing Halo-Akt2/AKTAR. […] FIG. 21H is a graph showing quantitation of all data sets for treatment of HEK293T cells expressing Halo-Akt3C119S mutant/AKTAR.
HEK293T cells were plated in imaging plates at 60% confluence. […] The signals in the cyan channel (463-498 nm) and the yellow channel (525-620 nm) were recorded. […] For quantification, the mean CFP and YFP signal intensity was measured using Image by drawing a freehand circle around the cells, and the ratio image was calculated. […]
One of the key benefits of covalent inhibition is the ability to uncouple pharmacokinetics from pharmacodynamics. […] Thus the ratio of green to blue emission is a direct readout of Akt activity in live cells.

BT-549 = test: Cell viability assay (AlamarBlue); conditions: BT-549, 72 hours
Method: (§1) FIGS. 22A and 22D are graphs showing results of cytotoxicity assays for MDA-MB-468 (FIG. 22A) and BT-549 (FIG. 22D). […] Stated cell lines were plated in 96-well plates (3000 cells per well) in the presence of the stated concentration of inhibitor. After 72 hours, the number of viable cells was analyzed by AlamarBlue®. Proliferation inhibition 50% (PI50) values were calculated by fitting data to “PI50 equation” (EQN 4) (FIG. 22C). MDA cells were transfected with the stated siRNA using lipofectamine 3000 for 12 hours. […] After 72 hours, the number of viable cells was calculated using AlamarBlue®. FIG. 22F is a schematic showing AlamarBlue® viability assay. […] MDA-MB-468 cells were treated with the stated drugs for 72 hours at the PI60 and PI80. […] After 30 min at room temperature, cells were analyzed by flow cytometry.
(§2) Indicated cells were plated in a 96-well plate containing the DMEM complete medium (see Example 11 for complete medium formulation, 100 μL per well) with a density of 3,000-5,000 cells per well for 12 hours followed by the addition of varying concentrations of inhibitors in rinse medium (100 μL). […] The fluorescence emission signals at 590 nm were read by Cytation 3 cell imaging multi-mode reader (BioTeK) using an excitation wavelength of 560 nm. […]

MDA-MB-468 = test: Cell viability assay (AlamarBlue); conditions: MDA-MB-468, 72 hours
Method: as §1, §2

C#CCCCC(O)/C=C/C(=O)NC1(c2ccc(-c3nc4ccn5c(=O)[nH]nc5c4cc3-c3ccccc3)cc2)CCC1.Cl (stereo not shown) [MK-HNE, (E)-8-(4-(1-(4-Hydroxynon-2-en-8-ynamido)cyclobutyl)phenyl)-3-oxo-9-phenyl-2,3-dihydro-[1,2,4]triazolo[3,4-f][1,6]naphthyridin-7-ium Chloride]
Akt isozyme selectivity of inhibition [1]: Akt3≈Akt2>>Akt1
Akt3 activity (green/blue FRET ratio) after drug withdrawal (Halo-Akt3): significant Akt3 inhibition was retained
toxicity / potency relative to MK-2206 (BT-549): less effective than MK-2206
toxicity / potency relative to MK-2206 (MDA-MB-468): less effective than MK-2206
